Literature values, collected in patent US20240181093A1 (ADENOBIO N.V, priority 2012, published 2024).

System: myocardium
Conditions: cited from earlier work

Substance: boronic acid teboroxime [Tc99m-BATO]
- time of peak hepatic uptake following injection (excretion is enterohepatic): about 6 min
- myocardial uptake, time (in vivo): after only one minute
- time after which washed-out from the myocardium (in vivo): 3 min
